# Antibody variant affinities, Ab-14 heavy chain, assay B

Source: Li et al. 2023 (doi:10.1038/s41467-023-39022-2), MIT Lincoln Laboratory and A-Alpha Bio; data file from the FLAb repository.

Target: peptide PDVDLGDISGINAS, taken from heptad repeat 2 (HR2) of SARS-CoV-2 spike.

Each scFv is VH, a 15-residue (Gly4Ser)3 linker, VL, as in the parent Ab-14, and differs from it in the CDRs of the heavy chain only.
VH: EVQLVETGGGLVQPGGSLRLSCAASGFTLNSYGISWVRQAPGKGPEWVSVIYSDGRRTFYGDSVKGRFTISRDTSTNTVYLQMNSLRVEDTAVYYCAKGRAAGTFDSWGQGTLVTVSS
VL: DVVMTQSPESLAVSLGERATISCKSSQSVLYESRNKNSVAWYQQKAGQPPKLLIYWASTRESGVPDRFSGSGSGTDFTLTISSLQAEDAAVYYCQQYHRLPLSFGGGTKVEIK

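The parent was found by panning a naive human phage display library on the peptide. Designed CDR sequences, proposed from the first random library and measured here. Group labels follow the data file (Ctrl: baseline library sampled from a position-specific scoring matrix, with some repeated check sequences; Rand: our label for a block that the file lists under HC and that is probably the random mutants of the ten best first-round binders; En: ensemble of fine-tuned language models; GP: Gaussian process model; GPLM: also part of the Gaussian process libraries; HC: hill climbing; Gen: genetic algorithm; Gibbs: Gibbs sampling; a sequence that several methods proposed may carry one label only). The assay is AlphaSeq: two haploid yeast populations carry antibody and antigen on their surface. The frequency of each diploid, read from paired DNA barcodes, reflects how well the two displayed proteins bind. A regression on co-assayed BCL2-family reference pairs converts the normalised counts of each replicate to an apparent Kd. The assay was run in six technical replicates.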

Each variant is given by its three heavy chain CDRs, as the data file delimits them; those of the parent are GFTLNSYGIS, VIYSDGRRTFYGDSVK, GRAAGTFDS.
Kd is apparent (estimated from mating counts) and averaged on the log scale over replicates with a signal. Smaller is tighter.
An entry "not detected" has no value in the source: the pair was not observed among the diploids in any replicate. This suggests poor binding but is not conclusive.
The list is sorted by this average, lowest first, undetected variants last.
The parent sequence was in this pool as ten entries: three were never detected, three once, and four in most replicates, with averages from 2.2 nM to 240 nM.
Three control strains display no target. For all heavy chain designs, 1% of the pairings with them gave a signal, with a median of 120 nM and one signal in twenty below 7.0 nM, so weak values seen in few replicates may be background. Also given: how often the same scFv was detected with the empty control strains.
The authors averaged sequences with at least three values out of six and counted those with two or fewer as poor binders.
Values of this round are not directly comparable with the first-round values of the same sequences.

CDR-H1	CDR-H2	CDR-H3	group	Kd (apparent)	detected	control signals
GFDLNEYGIS	VIYADGRRTQYIDSVK	GEQAGTFDY	En_HC	80 pM	6 of 6	0 of 18
GFELKSYGIS	VIYADGRRTFYGDSVK	GRAAGTFDS	GP_Gen	93 pM	6 of 6	0 of 18
GFSLDEYGIS	VIYADGRRTFYADSVK	GENAGTFDM	En_HC	130 pM	6 of 6	0 of 18
GFDLNEYGIS	VIYADGVRTAYADNVK	GNVAGTFDQ	En_Gen	170 pM	6 of 6	1 of 18
GFTLDEYGIS	VIYADGKRTFYADSVK	GNVAGTFDQ	En_HC	270 pM	6 of 6	0 of 18
GFDLNEYGIS	VIYADGSRTFYSDSVK	GQTAGTFDL	En_HC	300 pM	6 of 6	0 of 18
GFDLNEYGIS	VIYADGRRTAYSDSVK	GEMAGTFDS	En_HC	340 pM	6 of 6	1 of 18
GFDLNEYGIS	VIYADGMRTFYADSVK	GKNAGTFDV	En_Gen	340 pM	6 of 6	0 of 18
GFDLNEYGIS	VIYADGRRTAYKDSVK	GEAAGTFDQ	En_HC	470 pM	6 of 6	0 of 18
GFDLNSYGIS	VIYSDGRRTFYVDDVK	GRNAGTFDS	GP_Gibbs	600 pM	6 of 6	0 of 18
GFDLNEYGIS	VIYADGMRTAYADSVK	GSNAGTFDL	En_Gen	720 pM	6 of 6	1 of 18
GFDLNEYGIS	VIYADGRRTSYKDSVK	GNAAGTFDV	En_HC	760 pM	6 of 6	0 of 18
GFDLNEYGIS	VIYADGKRTYYADSVK	GENAGTFDM	En_Gen	890 pM	5 of 6	0 of 18
GFDLNSYGIS	VIYSDGRRTFYGDSVK	GQEAGTFDN	GP_Gibbs	960 pM	6 of 6	0 of 18
GFELNSYGIS	VIYSDGRRTFYSDAVK	GKTAGTFDS	GP_Gibbs	980 pM	6 of 6	1 of 18
GFDLNEYGIS	VIYADGVRTFYADSVK	GENAGTFDI	En_Gen	990 pM	6 of 6	0 of 18
GFDLNEYGIS	VIYADGHRTFYSDSVK	GQSAGTFDM	En_HC	1.1 nM	6 of 6	1 of 18
SFDLNSYGIS	VIYSDGRRTFYKDSVK	GRTAGTFDS	GP_Gen	1.2 nM	6 of 6	0 of 18
GFDLNEYGIS	VIYADGRRTFYADSVK	GENAGTFDL	En_Gen	2.2 nM	6 of 6	0 of 18
GFDLNSYGIS	VIYSDGRRTFYGDDVK	GQAAGTFDS	GP_Gen	2.8 nM	6 of 6	0 of 18
GFELNSYGIS	VIYSDGRRTFYGDSVK	GEAAGTFDK	GPLM_Gibbs	5.0 nM	4 of 6	0 of 18
WFSLNSYGIS	VIYADGRRTFYGDSVK	GQAAGTFDS	GP_Gibbs	5.8 nM	1 of 6	0 of 18
GFSLNSYGIS	VIYSDGRRTFYIDSVK	GNTAGTFDS	GPLM_Gibbs	8.1 nM	6 of 6	0 of 18
GFDLDEYGIS	VIYADGMRTAYSDNVK	GENAGTFDV	En_Gen	14 nM	5 of 6	0 of 18
GFPLNSYGIS	VIYSDGIRTFYDDSVK	GQLYGTFDS	Rand	17 nM	6 of 6	2 of 18
GFTRNSYGIS	VIYSDGRRTFYGDSVK	GRAAGSFDS	Ctrl	18 nM	6 of 6	1 of 18
GFSLNMYGIS	VIYSDGRRTFYGDQVK	GRTAGTFDS	GPLM_Gibbs	20 nM	3 of 6	0 of 18
GFELNSYGIS	VIYSDGRRTFYVDSVK	GEAAGTFDS	GP_Gen	27 nM	6 of 6	0 of 18
GFQLNSYGIS	VIYSDGRRTFYKDSVK	GKTAGTFDS	GP_Gibbs	45 nM	1 of 6	0 of 18
GFDLNEYGIS	VIYADGSRVAYAQKVK	GKNDAISSV	En_Gibbs	800 nM	1 of 6	1 of 18
GLELNDYGIS	VIYSDGRRTFYMDSVK	GRAADTFDS	Ctrl	not detected	0 of 6	0 of 18
KFNLNSYGIS	VIYSDGRRTFYDDSVK	GQTAGTFDS	GP_Gibbs	not detected	0 of 6	0 of 18
GFNLDEYGIS	VIYADGTRTNYLDTVK	GVTGGTFIM	En_Gibbs	not detected	0 of 6	0 of 18
EFDLQEFGIS	VIYADGKREAYKDDFK	GQVAGTFDE	En_Gibbs	not detected	0 of 6	0 of 18
GFTLDSYGIS	VIYSDGRRTFYGDSVK	GRAAGTFTL	GPLM_HC	not detected	0 of 6	0 of 18
GFQLNEYGIS	VIYSDGRRTFYGDSVK	GRAGGTFIS	GP_HC	not detected	0 of 6	0 of 18
GFQLDEYGIS	VIYADGLRQEYAQKVK	GYNSFDLND	En_Gibbs	not detected	0 of 6	0 of 18
GYDLNEFGIS	VIYADGSRVAYADDVK	GNIAGHILS	En_Gibbs	not detected	0 of 6	0 of 18
GFTLNDKWWS	VIISDGRRTQYIDSVK	GRAAGTFDS	Rand	not detected	0 of 6	0 of 18
TFTLNSYGIS	VIYSDGRRTFYGDSVR	GRAAGTFDI	Ctrl	not detected	0 of 6	0 of 18
GFTLNSYGIS	VIYSDGFRTFYGDSVK	GRAASTFDS	Ctrl	not detected	0 of 6	0 of 18
GFTLASYGIS	VIYSDGRRTMYIDSTK	GGAAGTFDS	Ctrl	not detected	0 of 6	0 of 18
GADLNEYGIS	VIYADGDRIAAQNDVK	GTNAGDFDI	En_Gibbs	not detected	0 of 6	0 of 18
GFNLNSYGIS	VIYSDGRYTFYDDSVK	CRAAGTFDS	Ctrl	not detected	0 of 6	0 of 18
GFDLNSYGIS	VIYSDGRRTFYIDSVK	GRAAGTFNV	GP_HC	not detected	0 of 6	0 of 18
GFTVNSYGIS	VIYSCGRRTFYGDSVK	GRAAGTFTV	Ctrl	not detected	0 of 6	0 of 18

Again, the first 6 entries without any signal:

| CDR-H1 | CDR-H2 | CDR-H3 | group | Kd (apparent) | detected | control signals |
|---|---|---|---|---|---|---|
| GLELNDYGIS | VIYSDGRRTFYMDSVK | GRAADTFDS | Ctrl | not detected | 0 of 6 | 0 of 18 |
| KFNLNSYGIS | VIYSDGRRTFYDDSVK | GQTAGTFDS | GP_Gibbs | not detected | 0 of 6 | 0 of 18 |
| GFNLDEYGIS | VIYADGTRTNYLDTVK | GVTGGTFIM | En_Gibbs | not detected | 0 of 6 | 0 of 18 |
| EFDLQEFGIS | VIYADGKREAYKDDFK | GQVAGTFDE | En_Gibbs | not detected | 0 of 6 | 0 of 18 |
| GFTLDSYGIS | VIYSDGRRTFYGDSVK | GRAAGTFTL | GPLM_HC | not detected | 0 of 6 | 0 of 18 |
| GFQLNEYGIS | VIYSDGRRTFYGDSVK | GRAGGTFIS | GP_HC | not detected | 0 of 6 | 0 of 18 |